Results taken from ChEMBL document CHEMBL4330080, “Hydroxyazole scaffold-based Plasmodium falciparum dihydroorotate dehydrogenase inhibitors: Synthesis, biological evaluation and X-ray structural studies” (Eur J Med Chem, 2019).

Assay: Selectivity ratio of IC50 for human recombinant DHODH to IC50 for Plasmodium falciparum recombinant DHODH

Row | Ratio IC50 | SMILES
1 | > 38 | Cn1nc(O)c(C(=O)O)c1COc1ccc(C(F)(F)F)cc1
2 | > 71 | Cn1nc(O)c(C(=O)O)c1COc1cccc(C(F)(F)F)c1
3 | > 17 | O=C(NCC(c1ccccc1)c1ccccc1)c1nsnc1O
